The values below come from ChEMBL document CHEMBL1130275, “Novel N-substituted 3 alpha-[bis(4'-fluorophenyl)methoxy]tropane analogues: selective ligands for the dopamine transporter” (J Med Chem, 1997).

The chains behind the UniProt entries cited, without tags or fusion partners. Where a name states a change or a piece, a line headed by the entry shows the natural chain unless it says otherwise.
UniProt P08482: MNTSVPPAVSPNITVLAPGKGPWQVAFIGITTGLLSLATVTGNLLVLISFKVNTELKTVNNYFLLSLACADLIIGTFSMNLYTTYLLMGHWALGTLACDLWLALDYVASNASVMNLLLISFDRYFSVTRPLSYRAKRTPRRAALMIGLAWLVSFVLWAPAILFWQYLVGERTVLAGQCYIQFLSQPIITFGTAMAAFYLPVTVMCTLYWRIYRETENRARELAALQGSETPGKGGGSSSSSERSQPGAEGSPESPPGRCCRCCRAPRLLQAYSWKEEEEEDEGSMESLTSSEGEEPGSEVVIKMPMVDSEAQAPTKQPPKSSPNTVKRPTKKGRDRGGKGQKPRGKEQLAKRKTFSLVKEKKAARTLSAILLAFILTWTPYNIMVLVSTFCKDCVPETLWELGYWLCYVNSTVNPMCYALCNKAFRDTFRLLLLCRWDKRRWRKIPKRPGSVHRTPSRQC

The test deals with Muscarinic acetylcholine receptor M1 (Rattus norvegicus, UniProt P08482). Nature of the test: Binding affinity against Muscarinic acetylcholine receptor M1 sites of rat. The method, boiled down: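 Whole rat brain minus cerebellum, membranes made by two-step centrifugation and resuspended in 10 mM Tris pH 7.4. Assay buffer is 10 mM Tris-HCl with 5 mM MgCl2. Membrane is preincubated 5 min with the compound, then [3H]pirenzepine 3 nM final is added for 1 h at 37 °C. Filtration through PEI-soaked GF/B. Compounds run at 0.01 nM–100 μM, ≥3 independent experiments in triplicate.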

`CN1C2CCC1CC(OC(c1ccc(F)cc1)c1ccc(F)cc1)C2` (stereo unspecified) [DIFLUOROBENZTROPINE] returned a Ki of 9 nM. That is a single-digit nanomolar value.

For orientation: Ki means a measure of affinity in units of concentration, obtained from inhibition or displacement. Lower therefore signals tighter binding.
